Values quoted from earlier work in patent publication US20080154230A1 (priority 2006, published 2008).

Settings: in vivo

## Starch Hydroxypropyltriammonium Chloride [SENSOMER® CI-50]
  responses of subjects in human repeated-insult study: no clinically significant responses
